The assay deals with T1, hCA I (Homo sapiens, UniProt P00915).
T1 construct: The hCA I and II isoenzymes used here were purified from human blood as previously described; from tissue; host or cells: human blood
The assay is described as follows: hCA I inhibition, esterase activity method (4-nitrophenylacetate). It counts as biochemical.

Amino acid sequences for entries named in this document (tags omitted). A change or cut given only in a name is not applied to a line headed by its entry.
UniProt P00915: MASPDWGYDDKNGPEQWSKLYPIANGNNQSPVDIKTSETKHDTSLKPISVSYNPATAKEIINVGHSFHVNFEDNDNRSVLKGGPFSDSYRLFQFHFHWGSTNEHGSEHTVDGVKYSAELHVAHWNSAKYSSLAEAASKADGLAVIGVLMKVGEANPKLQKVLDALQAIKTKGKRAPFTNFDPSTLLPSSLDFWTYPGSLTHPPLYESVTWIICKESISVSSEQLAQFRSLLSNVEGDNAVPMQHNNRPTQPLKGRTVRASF

One molecule from article PMC6896446, “Design, synthesis and molecular modelling studies of some pyrazole derivatives as carbonic anhydrase inhibitors” (Journal of Enzyme Inhibition and Medicinal Chemistry, 2019) can be followed below.

In general, Ki refers to a dissociation constant, usually derived from enzyme kinetics or from competition with a known ligand. Low readings indicate a stronger hold on the target, high ones a looser hold on the target. Regarding `COc1cc(/C=C/C(=O)c2ccc(N)cc2)cc(OC)c1OC` [Compound 1, (E)-1-(4-aminophenyl)-3-(3,4,5-trimethoxyphenyl)prop-2-en-1-one], the affinity corresponds to a Ki of 10.2 nM. This lies in the double-digit nanomolar range.
